# ChEMBL document CHEMBL1123240, “Cyclic analogues of 2-amino-4-phosphonobutanoic acid (APB) and their inhibition of hippocampal excitatory transmission and displacement of [3H]APB binding” (J Med Chem, 1986)
# Assay: Ratio of IC50 of Lateral perforant path(LPP) to IC50 of [3H]- binding
# Assay type: tissue-based
# Procedure, shortened: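 Ratio of IC50 values. For line 8, LPP IC50 from slice recording over [3H]APB binding IC50. Each IC50 is a weighted mean of IC50s calculated for each experimental point, or for steep agonist-like curves is read directly from the log concentration–response curve.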
row,SMILES,Ratio
1,N[C@@]1(C(=O)O)CC[C@H](P(=O)(O)O)C1,200
2,N[C@@]1(C(=O)O)CC[C@@H](P(=O)(O)O)C1,1.6
3,N[C@@H](CCP(=O)(O)O)C(=O)O,1.7
